The test has as its target Syk (Homo sapiens (Human), UniProt P43405). As to the kind of experiment: High Throughput Syk Biochemical Assay (KinEASE TR-FRET). On the procedure: Syk activity was measured using KinEASE (Cisbio), a time-resolved fluorescence resonance energy transfer (TR-FRET) immunoassay. In this assay, Syk-catalyzes the phosphorylation of a XL665-labeled peptide substrate. Europium conjugated phospho-tyrosine specific antibody binds the resulting phosphorylated peptide. Formation of phosphorylated peptide is quantified by TR-FRET with Europium as the donor and XL665 the acceptor in a 2-step endpoint assay. In brief, test compounds serially diluted in DMSO were delivered into Corning white, low volume, non-binding 384 well plates using the Echo 550 acoustic liquid dispenser (Labcyte®). Syk enzyme and substrates were dispensed into assay plates using a Multi-Flo (Bio-Tek Instruments).
A general note: TR-FRET usually uses a lanthanide donor and a delayed reading to cut background.

For orientation: IC50 means the concentration at which inhibition is half-maximal.

On to `Nc1cncc(-c2cn3ccnc3c(Nc3ccc(N4CCN(C5COC5)CC4)cc3)n2)n1` [Ex.-2, 6-(6-aminopyrazin-2-yl)-N-(4-(4-(oxetan-3-yl)piperazin-1-yl)phenyl)imidazo[1,2-a]pyrazin-8-amine], for which the IC50 is 13.5 nM (20 μM ATP, 0.015 nM Syk) and 13.5 nM (comparison table with known Syk inhibitors).

Values taken from patent US9290505B2, “Substituted imidazo[1,2-a]pyrazines as Syk inhibitors” (Gilead Sciences, Inc., priority 2013, dated 2016).
